Test results taken from ChEMBL document CHEMBL1138908, “Design and structure-activity relationship of 3-benzimidazol-2-yl-1H-indazoles as inhibitors of receptor tyrosine kinases” (Bioorg Med Chem Lett, 2006).

By UniProt entry, the sequences of proteins in these tests, tags left out.
UniProt P11362, whole entry: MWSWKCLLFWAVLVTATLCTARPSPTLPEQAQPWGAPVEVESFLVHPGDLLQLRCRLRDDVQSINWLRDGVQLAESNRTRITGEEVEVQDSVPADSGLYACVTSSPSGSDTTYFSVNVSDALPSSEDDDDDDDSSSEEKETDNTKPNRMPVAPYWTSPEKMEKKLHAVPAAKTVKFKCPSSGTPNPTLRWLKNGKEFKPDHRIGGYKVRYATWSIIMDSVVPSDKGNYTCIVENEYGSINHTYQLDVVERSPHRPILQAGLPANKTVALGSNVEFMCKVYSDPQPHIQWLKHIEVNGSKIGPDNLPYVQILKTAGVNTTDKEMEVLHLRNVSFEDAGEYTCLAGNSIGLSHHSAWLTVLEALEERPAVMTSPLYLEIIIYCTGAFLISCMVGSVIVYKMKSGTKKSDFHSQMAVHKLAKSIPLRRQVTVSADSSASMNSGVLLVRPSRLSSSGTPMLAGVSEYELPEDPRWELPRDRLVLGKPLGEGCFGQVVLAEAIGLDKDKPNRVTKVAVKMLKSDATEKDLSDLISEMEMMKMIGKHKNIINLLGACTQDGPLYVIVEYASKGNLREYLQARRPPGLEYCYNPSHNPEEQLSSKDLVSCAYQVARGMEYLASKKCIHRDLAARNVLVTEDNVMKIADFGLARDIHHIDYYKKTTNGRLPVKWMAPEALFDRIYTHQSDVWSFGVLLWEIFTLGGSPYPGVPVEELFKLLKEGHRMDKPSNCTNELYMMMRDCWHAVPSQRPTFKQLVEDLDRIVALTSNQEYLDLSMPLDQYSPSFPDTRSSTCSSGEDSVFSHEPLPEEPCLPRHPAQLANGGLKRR
UniProt P17948, whole entry: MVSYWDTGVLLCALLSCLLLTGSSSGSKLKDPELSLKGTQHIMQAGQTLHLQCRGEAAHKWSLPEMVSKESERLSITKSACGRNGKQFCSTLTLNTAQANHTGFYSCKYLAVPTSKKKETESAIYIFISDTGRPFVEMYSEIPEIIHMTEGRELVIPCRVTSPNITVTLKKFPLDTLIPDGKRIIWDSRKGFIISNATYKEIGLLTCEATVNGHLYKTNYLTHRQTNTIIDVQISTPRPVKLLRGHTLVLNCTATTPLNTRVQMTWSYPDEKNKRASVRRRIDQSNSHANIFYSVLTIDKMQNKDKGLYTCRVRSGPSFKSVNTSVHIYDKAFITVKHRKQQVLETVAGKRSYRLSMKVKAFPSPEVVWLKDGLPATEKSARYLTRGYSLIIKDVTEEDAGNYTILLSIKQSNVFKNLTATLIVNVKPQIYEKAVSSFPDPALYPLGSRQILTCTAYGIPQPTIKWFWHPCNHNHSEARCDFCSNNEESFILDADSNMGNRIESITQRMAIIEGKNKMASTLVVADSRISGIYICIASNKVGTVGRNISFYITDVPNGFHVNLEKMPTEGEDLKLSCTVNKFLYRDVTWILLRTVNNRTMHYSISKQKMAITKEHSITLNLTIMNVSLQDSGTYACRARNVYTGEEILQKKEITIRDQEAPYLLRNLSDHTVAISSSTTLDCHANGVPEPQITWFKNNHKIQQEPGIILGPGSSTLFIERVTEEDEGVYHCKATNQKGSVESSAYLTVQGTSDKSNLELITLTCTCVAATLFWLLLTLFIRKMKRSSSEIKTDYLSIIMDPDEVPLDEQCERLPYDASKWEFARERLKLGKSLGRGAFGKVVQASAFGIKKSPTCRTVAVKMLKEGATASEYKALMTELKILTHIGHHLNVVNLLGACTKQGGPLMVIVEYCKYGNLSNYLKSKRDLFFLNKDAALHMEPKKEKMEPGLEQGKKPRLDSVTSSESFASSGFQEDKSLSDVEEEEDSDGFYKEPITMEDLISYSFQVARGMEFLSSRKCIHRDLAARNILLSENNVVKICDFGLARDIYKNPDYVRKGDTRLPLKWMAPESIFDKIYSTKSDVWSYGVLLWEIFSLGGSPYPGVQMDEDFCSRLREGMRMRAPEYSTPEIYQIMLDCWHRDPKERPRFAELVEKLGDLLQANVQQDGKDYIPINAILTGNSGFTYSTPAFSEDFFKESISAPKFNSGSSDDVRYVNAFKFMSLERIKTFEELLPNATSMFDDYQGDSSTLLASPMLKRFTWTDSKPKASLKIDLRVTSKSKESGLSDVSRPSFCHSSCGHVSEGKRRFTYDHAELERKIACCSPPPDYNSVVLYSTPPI

Columns and labels:
[1] = biological target: Fibroblast growth factor receptor 1 (Homo sapiens, UniProt P11362); assay: Inhibition of FGFR1
[2] = biological target: Vascular endothelial growth factor receptor 1 (Homo sapiens, UniProt P17948); assay: Inhibition of VEGFR1

Row | Compound | IC50 [1] [nM] | IC50 [2] [nM]
1 | FC(F)(F)c1ccc2c(-c3nc4ccc(N5CCC(N6CCCCC6)CC5)cc4[nH]3)n[nH]c2c1 | 2 | 2
2 | CC(C)(C)NC(=O)Nc1ccc2[nH]nc(-c3nc4ccc(N5CCC(N6CCCCC6)CC5)cc4[nH]3)c2c1 | 1 | 
